The list shows a part of the results.

The test has as its system A. baumannii ATCC 17978. Kind of test: relative growth (fraction of control); higher = less inhibition. The settings on record: 50 µM.
The molecule `O=C(Cc1ccncc1)NCC[C@@H]1CC[C@H](NC(=O)C2CCOCC2)[C@H](CO)O1` had a relative growth of 1.07.
The value for `Nc1cc(=O)[nH]c(=O)n1-c1ccc(Cl)cc1` was 1.04.
In the case of `CS(=O)(=O)Nc1ccc2c(c1)[C@H]1C[C@@H](CC(=O)NCC3CC3)O[C@H](CO)[C@H]1O2` it was 0.966.
The value for `CN(C)CC(=O)N[C@H]1C=C[C@H](CC(=O)NCCN2CCCCC2)O[C@@H]1CO` was 1.03; that for `C[N+](C)(C)C[C@H](O)CC(=O)[O-]` was 1; that for `O=C(O[C@@H]1Cc2c(O)cc(O)cc2O[C@@H]1c1cc(O)c(O)c(O)c1-c1c([C@H]2Oc3cc(O)cc(O)c3C[C@H]2OC(=O)c2cc(O)c(O)c(O)c2)cc(O)c(O)c1O)c1cc(O)c(O)c(O)c1` was 1.01.
With `Cc1ccc(Cc2nc(-c3ccc(Cl)cc3)cs2)cc1`, the relative growth is 1.25.
`Cc1ccc2nc3c(cc(C(=O)NCCN4CCOCC4)c(=N)n3C[C@H]3CCCO3)c(=O)n2c1` had a relative growth of 1.02.
`CN(C)c1nc2ncnc(N)c2[nH]1` registered a relative growth of 1.04.
The value for `COc1ccc(C#Cc2ccc3c(c2)[C@]2(C(=O)N3)[C@H](C(=O)N3CCCCCCC3)[C@H]3C(=O)O[C@H](c4ccccc4)[C@H](c4ccccc4)N3[C@@H]2c2ccc(O)cc2)cc1` was 0.978.
The value for `COCC#Cc1ccc2c(c1)O[C@@H](CN(C)S(=O)(=O)c1cccc(F)c1)[C@H](C)CN([C@@H](C)CO)S2(=O)=O` was 0.929; that for `O=C1c2ccccc2[C@](Cc2ccccc2I)(C(=O)NCCN2CCOCC2)[C@H](c2ccc(CO)cc2)N1C1CCCCC1` was 0.795.
The value for `COc1ccc(-c2cc(=O)c3c(OC)cc(OC)cc3o2)cc1` was 1.03; that for `COCC#Cc1ccc2c(c1)O[C@@H](CN(C)C(=O)c1ccccc1F)[C@@H](C)CN([C@@H](C)CO)S2(=O)=O` was 1.15.
Consider `Cn1cnc(S(=O)(=O)N[C@H]2CC[C@@H](CC(=O)Nc3ccccc3)O[C@H]2CO)c1`, for which the relative growth was 0.981.
For `NCC[C@@H]1CC[C@@H](NC(=O)Cc2ccncc2)[C@H](CO)O1`, the relative growth worked out at 1.21.
In the case of `C=CC[C@H](CC(=O)N(CCO)Cc1ccccc1)C(=O)N[C@H](COC(=O)[C@H](CC=C)NC(=O)OCC1c2ccccc2-c2ccccc21)C(C)(C)C` it was 1.05; in that of `CC(C)c1c(O)ccc2c1CCC1[C@@](C)(C=O)CCC[C@]21C` (stereo partly specified), 0.921; in that of `O=S(=O)([O-])c1cc(O)c2c(/N=N/c3ccc(Nc4ccccc4)c4c(S(=O)(=O)[O-])cccc34)cc(S(=O)(=O)[O-])cc2c1.[Na+].[Na+].[Na+]`, 2.12.
In the case of `C[C@@H](NC(=O)C[C@@H]1C=C[C@@H](NC(=O)CN2CCOCC2)[C@@H](CO)O1)c1ccccc1` it was 1.06; in that of `O=C(C[C@@H]1C=C[C@H](NC(=O)Cc2ccccn2)[C@H](CO)O1)NCCCN1CCOCC1`, 1.02.
In the case of `O=C(O)CCCCCCCC(O)C(O)CCCCCCO` (stereo unspecified) it was 1.03; in that of `CO[C@H]1CN(C)C(=O)c2ccc(NC(=O)Nc3ccccc3)cc2OC[C@@H](C)N(C(=O)CN(C)C)C[C@@H]1C`, 1.02; in that of `COc1ccc(S(=O)(=O)N2C[C@@H](O)COC[C@H]3O[C@H](CC(=O)N[C@H]4CCN(Cc5ccccc5)C4)CC[C@@H]32)cc1`, 0.926.
`COc1ccc2c(=O)cc(-c3ccccc3OC)oc2c1` returned a relative growth of 1.2.
`COc1cccc(S(=O)(=O)N[C@H]2C=C[C@H](CC(=O)NC3CCC3)O[C@@H]2CO)c1` showed a relative growth of 1.1.
In the case of `COC(=O)[C@@]1(C)CCC[C@]2(C)c3ccc(O)c(C(C)C)c3CCC12` (stereo partly specified) it was 0.975; in that of `S=C1NCN(Cc2ccncc2)CN1`, 0.941; in that of `C[C@@H]1CN([C@H](C)CO)S(=O)(=O)c2ccc(C#Cc3ccncc3)cc2O[C@@H]1CN(C)C(=O)C1CCC1`, 1.04.
The value for `CC1(C)O[C@@H]2C[C@H]3[C@@H]4C[C@H](F)C5=CC(=O)C=C[C@]5(C)[C@H]4[C@@H](O)C[C@]3(C)[C@]2(C(=O)CO)O1` was 0.989; that for `C[C@H]1CN([C@@H](C)CO)C(=O)c2cc(C#CC3(O)CCCC3)cnc2O[C@@H]1CN(C)C(=O)C1CCCCC1` was 0.992.
The molecule `Cc1cc(C)c(C)c(C(=O)O)c1C` came in with a relative growth of 0.879.
The value for `C[C@H](NC(=O)C[C@H]1C[C@H]2c3cc(NC(=O)Nc4ccc(C(F)(F)F)cc4)ccc3O[C@H]2[C@H](CO)O1)c1ccccc1` was 0.754; that for `CC(C)CCCC(C)[C@H]1CCC2C3CC=C4C[C@@H](O)CC[C@]4(C)C3CC[C@@]21C` (stereo partly specified) was 0.989; that for `CN1CCCN(C[C@@]2(O)CCNC2)CC1` was 1.03.
The value for `C[C@H](CS)C(=O)N1CCC[C@H]1C(=O)O` was 1.03; that for `O=S(=O)([O-])CCS.[Na+]` was 1.08; that for `C=CCN1C(C)=N[C@H]2C=C[C@H](NCCCO)[C@H]21` was 1.03.
As for `O=C(C[C@@H]1C=C[C@@H](NC(=O)CN2CCOCC2)[C@@H](CO)O1)NCc1cccc(F)c1`, the relative growth was determined as 0.954.
In the case of `CC(C)CCC[C@@H](C)[C@H]1CC[C@H]2[C@@H]3C[C@@H](O)[C@@]4(O)C[C@@H](O)CC[C@]4(C)[C@H]3CC[C@]12C` [CHOLESTAN-3beta,5alpha,6beta-TRIOL] it was 1.08.
The value for `O=C(C[C@@H]1C=C[C@@H](NC(=O)Cc2ccccn2)[C@@H](CO)O1)NCCCN1CCOCC1` was 0.961; that for `C=C(NC(=O)C(=C)NC(=O)c1csc(C2=N[C@@H]3c4csc(n4)[C@@H]4NC(=O)c5csc(n5)[C@H](C(C)(O)[C@@H](C)O)NC(=O)[C@H]5CSC(=N5)/C(=C/C)NC(=O)[C@H]([C@@H](C)O)NC(=O)c5csc(n5)[C@]3(CC2)NC(=O)[C@@H](C)NC(=O)C(=C)NC(=O)[C@@H](C)NC(=O)[C@@H]([C@H](C)CC)N[C@H]2C=Cc3c([C@@H](C)O)cc(nc3[C@@H]2O)C(=O)O[C@H]4C)n1)C(N)=O` (stereo partly specified) was 0.949.
In the case of `C[C@H](CO)N1C[C@H](C)[C@@H](CN(C)Cc2ccc3c(c2)OCO3)OCCCC[C@H](C)Oc2ccc(NS(=O)(=O)c3cccs3)cc2C1=O` it was 1.
With `O=C(C[C@@H]1C=C[C@H](NC(=O)CN2CCOCC2)[C@H](CO)O1)NCCc1ccncc1`, the relative growth came to 1.06.
With `COc1ccccc1-c1ccc2c(c1)O[C@@H](CN(C)S(=O)(=O)c1ccccc1)[C@H](C)CN([C@H](C)CO)S2(=O)=O`, the relative growth stood at 1.06.
In the case of `COC(=O)[C@H]1c2cc3c(c(O)c2[C@@H](O[C@@H]2O[C@H](C)[C@H](OC)[C@](C)(OC)[C@@H]2OC)C[C@@]1(C)O)C(=O)c1c(O)cc2c(c1C3=O)O[C@H]1O[C@@]2(C)[C@@H](O)[C@H](N(C)C)[C@@H]1O`, the relative growth was 1.05.

The record behind these values is published antibiotic growth screens (doi:10.1038/s41589-023-01349-8).
